Consider one compound from patent EP4471048A1, “PEPTIDE INHIBITORS OF INTERLEUKIN-23 RECEPTOR” (Zealand Pharma A/S, priority 2023, dated 2024).

The data set can be described thus: in vitro. Conditions: pig, pH 6.8.

On to `CC(=O)N[C@H](CCCNC(=N)N)C(=O)N[C@H]1CCSC[C@@H](C(=O)N[C@@H](Cc2ccc(OCCN)cc2)C(=O)N[C@@H](Cc2ccc3ccccc3c2)C(=O)NC2(C(=O)N[C@@H](CCC(=O)O)C(=O)N[C@@H](CC(N)=O)C(=O)N[C@@H](CC(N)=O)C(N)=O)CCOCC2)NC(=O)[C@H](CCC(N)=O)NC(=O)[C@H](Cc2c[nH]c3ccccc23)NC(=O)[C@H]([C@@H](C)O)NC(=O)[C@H](CCC(N)=O)NC1=O` [Peptide 993, [Ac]-[{d}R][Abu](16i)QTWQC(16i)[Y(2-aminoethoxy)][2-Nal][4-Aminotetrahydro-2H-pyran-4-carbonyl]ENN-[NH2], reference compound], for which the fraction remaining (usually the share of the starting amount still present when the sample was taken) at 1 h, 10 µM was found to be 47% and the fraction remaining at 4 h, 10 µM stood at 22%.
